Assay: Phase I study Part 1, single ascending doses (SAD), oral fasted
Settings: 80 mg dose level

With `CC(NC(=O)OC[n+]1cccc(C(=O)NCCO[N+](=O)[O-])c1)C1CCCCC1` (stereo in doubt) [Compound 8, (S)-1-(((1-cyclohexylethylcarbamoyl)oxy)methyl)-3-((2-(nitroxy)ethyl)carbamoyl)pyridine-1-ium iodide] the safety concerns raised was “no safety concerns”.

Reference: patent US20250161282A1, “PHARMACEUTICAL PYRIDYL COMPOSITIONS FOR TREATING AND PREVENTING DELAYED GRAFT FUNCTION” (Unicycive Therapeutics, Inc., priority 2023, published 2025)
